Experiment [1] can be described thus: C20 ratio was determined in the presence or absence of 0.1 mg of prazosin for the compound which are indicative of the contribution of alpha-1 adnergic mechanisms to the pressor response. The class given is functional. A digest of the protocol: (§1)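 Pithed rats received test compound as cumulative iv doses, and mean arterial pressure was recorded. C20 is the iv dose (µg/kg) that raises arterial pressure by 20 mmHg (mean ± SEM, n = 5). The same cumulative doses were repeated 10 min after iv prazosin 100 µg/kg or iv yohimbine 1 mg/kg. The ratio is C20 without antagonist over C20 with antagonist.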

The nature of experiment [2]: C20 ratio was determined in the presence or absence of 1 mg of yohimbine for the compound which are indicative of the contribution of alpha-2 adnergic mechanisms to the pressor response. The class given is functional. The method in brief:
as §1

Each structure is given as a SMILES string.

Consider `Cc1ccc2c(c1)CC1(CC2)CN=CN1` (stereo unspecified), for which the Ratio in experiment [1] was found to be 6.1; in experiment [2], 7.9.

With `Cc1ccc2c(c1)C[C@@]1(CC2)CN=CN1`, the Ratio amounted to 6.5 in experiment [1] and 4.2 in experiment [2].

On to `Cc1ccc2c(c1)C[C@]1(CC2)CN=CN1`, for which the figures for the Ratio in experiment [1] and in experiment [2] were 20 and 12, respectively.

The values above are taken from ChEMBL document CHEMBL1130142, “(S)-spiro[(1,3-diazacyclopent-1-ene)-5,2'-(7'-methyl-1',2',3',4'- tetrahydronaphthalene)]: resolution, stereospecific synthesis, and preliminary pharmacological characterization as a partial alpha-adrenergic agonist” (J Med Chem, 1997).
